Measured values from US12275706B2, “Malate salt of N-(4-{[6,7-bis(methyloxy) quinolin-4-yl]oxy}phenyl)-N′-(4-fluorophenyl)cyclopropane-1,1-dicarboxamide, and crystalline forms thereof for the treatment of cancer” (Exelixis, Inc., priority 2009, dated 2025).

Assay: Water solubility of free base and salts (salt screen)
Settings: 10 mg solids per mL water

Substance: Malonate
- Solubility: 3 µg/mL
